Results reported in patent US20240050463A1, “THERAPEUTIC COMPOSITIONS AND METHODS FOR TREATING HEPATITIS B” (ARBUTUS BIOPHARMA CORPORATION, priority 2016, published 2024).
Read-outs that look alike come from different tables or passages of the source.

Columns and labels:
Type in all cases: cell-based
[1] = test system: D type HBV in primary human hepatocytes (PHH); test: HBV DNA in culture supernatants of HBV-infected primary human hepatocytes (qPCR), MacSynergy; settings: for AVERAGE % INHIBITION: HBV DNA, COMPOUND 3 0.00 μM
Description: (§1) The mouse liver perfusion was applied to isolate PHHs. The isolated hepatocytes were further purified by Percoll. The cells were resuspended with culture media and seeded into the 96-well plates (6×10^4 cell/well) or 48-well plates (1.2×10^5 cell/well). The PHHs were infected with a D type HBV one day post seeding (day 1).
(§2) On day 2, the test compounds were diluted and added into the cell culture plates. The culture media containing the compounds were refreshed every other day. The cell culture supernatants were collected on day 8 for the HBV DNA and antigen determinations.
(§3) The compounds were tested at 7 concentrations, 3-fold dilution, in triplicate.
(§4) Two compounds were tested at 5×5 matrix, in triplicate plates.
DNA in the culture supernatants harvested on days 8 were isolated with QIAamp 96 DNA Blood Kit (Qiagen-51161). For each sample, 100 μl of the culture supernatants was used to extract DNA. The DNA was eluted with 100 μl, 150 μl or 180 μl of AE. HBV DNA in the culture supernatants was quantified by qPCR. The combination effect was analyzed by the MacSynergy software. The primers are described below.

[2] = test system: HBsAg, D type HBV in primary human hepatocytes (PHH); settings: for AVERAGE % INHIBITION: HBsAg, COMPOUND 3 0.00 μM
Description: as §1, §2, §3, §4
(§5) HBsAg/HBeAg in the culture supernatants harvested on days 8 were measured by the HBsAg/HBeAg ELISA kit (Autobio) according to the manual. The samples were diluted with PBS to get the signal in the range of the standard curve. The inhibition rates were calculated with the formula below. The combination effect was analyzed by the MacSynergy software.
% Inh. HBsAg=[1−HBsAg quantity of sample/HBV quantity of DMSO control]×100.

[3] = test system: HBeAg, D type HBV in primary human hepatocytes (PHH); settings: for AVERAGE % INHIBITION: HBeAg, COMPOUND 3 0.00 μM
Description: as §1, §2, §3, §4, §5
% Inh. HBeAg=[1−HBeAg quantity of sample/HBV quantity of DMSO control]×100.

[4] = IFNα2a 0.12 IU/mL, COMPOUND 25 0.00 μM
[5] = IFNα2a 0.37 IU/mL, COMPOUND 25 0.00 μM
[6] = IFNα2a 1.11 IU/mL, COMPOUND 25 0.00 μM
[7] = IFNα2a 3.33 IU/mL, COMPOUND 25 0.00 μM
[8] = IFNα2a 10.00 IU/mL, COMPOUND 25 0.00 μM

For “pegIFN α-2a: pegylated interferon alpha-2a”, the “AVERAGE % INHIBITION” value ([1]; IFNα2a 0.12 IU/mL) was 8.4%, the “AVERAGE % INHIBITION” value ([1]; IFNα2a 0.37 IU/mL) was 38.46% and the “AVERAGE % INHIBITION” value ([1]; IFNα2a 1.11 IU/mL) was 43.03%. The “AVERAGE % INHIBITION” value ([1]; IFNα2a 3.33 IU/mL) was 59.88%, the “AVERAGE % INHIBITION” value ([1]; IFNα2a 10.00 IU/mL) was 61.87% and the “AVERAGE % INHIBITION, HBV DNA” value ([1]; IFNα2a 0.12 IU/mL alone) was −18.56%. For the same substance, the “AVERAGE % INHIBITION, HBV DNA” value [1, 4] was −19.84%, the “AVERAGE % INHIBITION, HBV DNA” value ([1]; IFNα2a 0.37 IU/mL alone) was 6.59% and the “AVERAGE % INHIBITION, HBV DNA” value [1, 5] was 22.81%. The “AVERAGE % INHIBITION, HBV DNA” value ([1]; IFNα2a 1.11 IU/mL alone) was 28.08%, the “AVERAGE % INHIBITION, HBV DNA” value [1, 6] was 32.66% and the “AVERAGE % INHIBITION, HBV DNA” value ([1]; IFNα2a 3.33 IU/mL alone) was 52.39%. For the same substance, the “AVERAGE % INHIBITION, HBV DNA” value [1, 7] was 46.92%, the “AVERAGE % INHIBITION, HBV DNA” value ([1]; IFNα2a 10.00 IU/mL alone) was 59% and the “AVERAGE % INHIBITION, HBV DNA” value [1, 8] was 58.66%. For the same substance, the “AVERAGE % INHIBITION” value ([2]; IFNα2a 0.12 IU/mL) was 1.56%, the “AVERAGE % INHIBITION” value ([2]; IFNα2a 0.37 IU/mL) was 6.9% and the “AVERAGE % INHIBITION” value ([2]; IFNα2a 1.11 IU/mL) was 14.91%. For the same substance, the “AVERAGE % INHIBITION” value ([2]; IFNα2a 3.33 IU/mL) was 12.8%, the “AVERAGE % INHIBITION” value ([2]; IFNα2a 10.00 IU/mL) was 24.94% and the “AVERAGE % INHIBITION, HBsAg” value ([2]; IFNα2a 0.12 IU/mL alone) was −1.67%. The “AVERAGE % INHIBITION, HBsAg” value [2, 4] was −4.08%, the “AVERAGE % INHIBITION, HBsAg” value ([2]; IFNα2a 0.37 IU/mL alone) was 4.6% and the “AVERAGE % INHIBITION, HBsAg” value [2, 5] was 2.74%. The “AVERAGE % INHIBITION, HBsAg” value ([2]; IFNα2a 1.11 IU/mL alone) was 8.8%, the “AVERAGE % INHIBITION, HBsAg” value [2, 6] was 10.57% and the “AVERAGE % INHIBITION, HBsAg” value ([2]; IFNα2a 3.33 IU/mL alone) was 10.2%. For the same substance, the “AVERAGE % INHIBITION, HBsAg” value [2, 7] was 18.32%, the “AVERAGE % INHIBITION, HBsAg” value ([2]; IFNα2a 10.00 IU/mL alone) was 20.1% and the “AVERAGE % INHIBITION, HBsAg” value [2, 8] was 22.77%. The “AVERAGE % INHIBITION” value ([3]; IFNα2a 0.12 IU/mL) was −9.5%, the “AVERAGE % INHIBITION” value ([3]; IFNα2a 0.37 IU/mL) was −2.24% and the “AVERAGE % INHIBITION” value ([3]; IFNα2a 1.11 IU/mL) was 19.32%. The “AVERAGE % INHIBITION” value ([3]; IFNα2a 3.33 IU/mL) was 14.38%, the “AVERAGE % INHIBITION” value ([3]; IFNα2a 10.00 IU/mL) was 32.8% and the “AVERAGE % INHIBITION, HBeAg” value ([3]; IFNα2a 0.12 IU/mL alone) was 7.42%. The “AVERAGE % INHIBITION, HBeAg” value [3, 4] was −21.05%, the “AVERAGE % INHIBITION, HBeAg” value ([3]; IFNα2a 0.37 IU/mL alone) was 1.78% and the “AVERAGE % INHIBITION, HBeAg” value [3, 5] was −12.17%. For the same substance, the “AVERAGE % INHIBITION, HBeAg” value ([3]; IFNα2a 1.11 IU/mL alone) was 15.27%, the “AVERAGE % INHIBITION, HBeAg” value [3, 6] was −1.13% and the “AVERAGE % INHIBITION, HBeAg” value ([3]; IFNα2a 3.33 IU/mL alone) was 17.16%. The “AVERAGE % INHIBITION, HBeAg” value [3, 7] was 6.47%, the “AVERAGE % INHIBITION, HBeAg” value ([3]; IFNα2a 10.00 IU/mL alone) was 30.13% and the “AVERAGE % INHIBITION, HBeAg” value [3, 8] was 17.32%.
